Measurements as given in patent US12251411B2, “Methods of treating endometrial cancer using hemp extract” (Ecofibre USA Inc., priority 2021, dated 2025).

Test system: patient derived organoids
Experiment: Calculated IC50 of various agents on organoids derived from the chemoresistant patient (PD3D cell culture)
Assay type: cell-based, human
Details: organoids of the chemoresistant stage IV patient
Experimental: The IC50 values were calculated from such tests. This value indicates the dosage at which 50% of the organoids were killed due to treatment.

Row | Substance | Calculated IC50 PD3D Cell Culture
1 | Cetuximab | Not Reached
2 | Kadcyla: agent tested on patient derived organoids (Table 5) | Not Reached
